According to publication PMC4926326, “Synthesis, Biological Activity, and Apoptotic Properties of NO-Donor/Enmein-Type ent-Kauranoid Hybrids” (International Journal of Molecular Sciences, 2016):

System: Bel-7402 hepatoma cell line
Test: MTT antiproliferative assay
Assay type: cell-based, human
Settings: SI = IC50, L-02/IC50, Bel-7402
Description: The antiproliferative activity of 9a–i against four human cancer cell lines K562 leukemia cell line, MGC-803 gastric cancer cell line, CaEs-17 esophageal cancer cell line, and Bel-7402 hepatoma cell line, and human normal liver cells L-02 was evaluated by MTT assay (Table 2).
MTT assay was developed to monitor mammalian cell survival and proliferation in vitro [32]. CaEs-17 cells (K562, Bel-7402 and MGC-803 cells) from American Type Culture Collection (ATCC, Manassas, VA, USA) were cultivated in RPMI-1640 medium supplemented with 5% fetal bovine serum (v/v), 100 U/mL penicillin, and […] streptomycin. Cells (5 × 10^4 cell/mL) at the log phase of their growth cycle were added to each well of a 96-well plate (100 µL/well) and incubated for 24 h at 37 °C in a humidified atmosphere of 5% CO2. Then, cells were treated with or without test compounds in different concentrations. After 72 h, 5 mg/mL MTT solution (20 µL per well) was added. Cells were incubated at 37 °C. After 4 h, MTT solution was removed and DMSO was added to each well (150 µL). Ten minutes later at room temperature, the optical density (OD) values were measured at the wavelength of 490 nm on a Microplate Reader NO. 550 (BIO-RAD Instruments Inc., Hercules, CA, USA). In this experiment, 10 µg/mL of Taxol was used as the positive control and 0.1% DMSO was used as the negative reference.

Question: C=C1C(=O)[C@@]23C(=O)O[C@H]4CCC(C)(C)[C@H]5[C@H](O)OC[C@@]45[C@@H]2CC[C@@H]1[C@H]3O [Compound 8] was tested. Which “SI (selectivity index)” value did it give?
Answer: 0.7
